Assay [1] concerns Escherichia coli ATCC25922. The class given is cell-based. The settings on record: minimal concentration of peptide to inhibit microbial growth; 5 × 10^5 CFU/ml, 18 h at 37°C, OD 600 nm. The protocol: (§1) For antimicrobial assays, Escherichia coli ATCC 25922, Pseudomonas aeruginosa ATCC 15692, Staphylococcus aureus ATCC 25923, and Staphylococcus epidermidis ATCC 12228 were obtained from the American Type Culture Collection (Manassas, VA, United States). Salmonella typhimurium KCTC 1926 and Listeria monocytogenes KCTC 3710 were obtained from the Korean Collection for Type Cultures (Jeollabuk-do, Korea).
(§2) Minimum inhibitory concentrations (MICs) of purified PN peptides were assayed according to the Clinical and Laboratory Standards Institute recommendations ([Wiegand et al., 2008]). Briefly, bacterial suspension (5 × 10^5 CFU/ml), obtained by diluting an exponential growth phase culture, was then added into the 96-well plates containing 2-fold serial dilutions of each fraction, the plates were incubated for 18 h at 37°C. MICs of PN peptides were measured in optical density at 600 nm using Versamax™ ELISA Microplate Reader (Molecular Devices, Sunnyvale, CA, United States). PBS, culture media, and melittin were used as growth and growth inhibition controls. The MIC was defined as the lowest concentration of PN peptide that was able to inhibit microbial growth.

For assay [2], the system named is Staphylococcus aureus ATCC25923. The class given is cell-based. As to conditions: minimal concentration of peptide to inhibit microbial growth; 5 × 10^5 CFU/ml, 18 h at 37°C, OD 600 nm. The protocol: as §1, §2

Values after ≈ are worked out from the molar mass of the structure shown.

`CC[C@H](C)[C@H](NC(=O)CN)C(=O)NCC(=O)N[C@@H](C)C(=O)N[C@H](C(=O)N[C@@H](CC(C)C)C(=O)N[C@@H](CCCCN)C(=O)N[C@H](C(=O)N[C@@H](CC(C)C)C(=O)N[C@H](C(=O)N[C@H](C(=O)NCC(=O)N[C@@H](CC(C)C)C(=O)N1CCC[C@H]1C(=O)N[C@@H](C)C(=O)N[C@@H](CC(C)C)C(=O)N[C@H](C(=O)N[C@@H](CO)C(=O)N[C@@H](Cc1c[nH]c2ccccc12)C(=O)N[C@H](C(=O)N[C@@H](CCCCN)C(=O)N[C@@H](CCCNC(=N)N)C(=O)N[C@@H](CCCCN)C(=O)N[C@@H](CCCNC(=N)N)C(=O)N[C@@H](CCC(N)=O)C(=O)N[C@@H](CCC(N)=O)C(N)=O)[C@@H](C)CC)[C@@H](C)CC)[C@@H](C)O)[C@@H](C)O)C(C)C)C(C)C` [Melittin, reference compound]: the values for the MIC in assay [1] and in assay [2] were 2 µg/mL (≈ 0.703 µM) and 4 µg/mL (≈ 1.41 µM), respectively.

The record behind these values is PMC8172577, “A Novel Antimicrobial Peptides From Pine Needles of Pinus densiflora Sieb. et Zucc. Against Foodborne Bacteria” (Frontiers in Microbiology, 2021).
